Binding of CDR-mutated scFvs to a peptide of the spike HR2 region

Target: peptide PDVDLGDISGINAS, taken from heptad repeat 2 (HR2) of SARS-CoV-2 spike.

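The starting antibody came from a phage panning campaign against this peptide. The library (AAYL49) carries one to three amino acid substitutions per variant, with no insertions or deletions. The assay is AlphaSeq: two haploid yeast populations carry antibody and antigen on their surface. After mating in shaken culture at 30 °C for 16 h, diploids were selected and their barcode pairs sequenced. Each replicate has its own calibration line, from reference interactions of the BCL2 family. There are three technical replicates.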

Ab-14 is the parent antibody, in scFv form: VH, then the linker GGGGSGGGGSGGGGS, then VL. The light chain is unchanged in all variants.
VH: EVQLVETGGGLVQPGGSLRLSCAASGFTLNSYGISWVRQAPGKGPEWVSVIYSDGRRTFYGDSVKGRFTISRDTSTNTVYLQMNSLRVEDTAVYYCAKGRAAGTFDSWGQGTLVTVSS
VL: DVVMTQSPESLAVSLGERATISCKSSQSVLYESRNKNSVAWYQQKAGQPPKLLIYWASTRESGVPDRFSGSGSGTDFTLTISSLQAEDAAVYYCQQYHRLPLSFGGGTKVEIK

Changes read parent residue, position, new residue, counted from the first residue of the VH shown. Every variant below is changed at G55 of the VH (sequential numbering). Each Kd is an estimate from the mating assay, the geometric mean of the replicates in which the pair was seen; lower is stronger. "no signal" marks a missing value. The strain was present, yet no cells mated with the target were sequenced in any replicate, which points to weak or no binding. Empty control strains, which show no peptide, gave a signal in 15% of pairings with library AAYL49; the median was 11 µM and 95% of these signals were weaker than 680 nM. No background was subtracted.

Variant T28D/Y32Q/G55L gave no signal (0 of 3 replicates). Variant S31F/G55I/G99L gave 5.4 µM (1 of 3 replicates). For I34D/G55A/F59V, the assay gave no signal (0 of 3 replicates). Variant L29E/G55A/S107L showed no signal (0 of 3 replicates). For S35R/G55A/A101N, the assay gave 7.2 µM (1 of 3 replicates). Variant G55M/S63M/G99M gave no signal (0 of 3 replicates). For G55L/Y60H/D106G, the assay gave no signal (0 of 3 replicates). Variant T28P/N30I/G55A showed 17 µM (3 of 3 replicates).

Variant G55S/K65N/A101E showed 720 nM (1 of 3 replicates). Variant G55N/T58S/F59Q showed 810 nM (1 of 3 replicates). With I51N/G55C/S107A the result was no signal (0 of 3 replicates). Variant T28S/G55R/D62N showed 53 nM (1 of 3 replicates). Variant G26I/G55K/R100I showed no signal (0 of 3 replicates). Variant G26K/G55R/K65I gave 13 µM (1 of 3 replicates). Variant V50A/G55R/R56T gave 87 µM (1 of 3 replicates). Variant G55L/R56A/Y60A gave 4.0 µM (2 of 3 replicates).

For Y32F/G55N, the assay gave no signal (0 of 3 replicates). With D54A/G55A/R57C the result was 24 µM (2 of 3 replicates). Variant G55L/Y60Q/G103Q gave no signal (0 of 3 replicates). Variant I34D/G55I/G99C showed no signal (0 of 3 replicates). With S35H/G55M/S107V the result was no signal (0 of 3 replicates). Variant Y52M/G55A/V64M showed 24 µM (1 of 3 replicates). Variant Y52P/G55T/F105D gave 390 µM (1 of 3 replicates). For S35I/S53E/G55C, the assay gave no signal (0 of 3 replicates).

With T28H/G55N/R56S the result was 33 µM (1 of 3 replicates). Variant S53I/G55A/G61K gave no signal (0 of 3 replicates). Variant G55W showed no signal (0 of 3 replicates). Variant I51P/G55C/Y60P showed no signal (0 of 3 replicates). For I51H/G55H/R56G, the assay gave 26 µM (1 of 3 replicates). Variant G55H/G99R/R100M showed no signal (0 of 3 replicates). For G55I/S63Y/F105A, the assay gave no signal (0 of 3 replicates). For Y32G/S35H/G55F, the assay gave no signal (0 of 3 replicates).

Variant G55A/Y60L/S107L showed 14 µM (1 of 3 replicates). For G55Y/R100L/A102P, the assay gave 93 µM (1 of 3 replicates). For G26L/V50S/G55P, the assay gave no signal (0 of 3 replicates). Variant G55H/V64E/G99K showed no signal (0 of 3 replicates). Variant G55D/R56S/T104P showed no signal (0 of 3 replicates). Variant Y32D/G55F/S107F showed no signal (0 of 3 replicates).

5 of these entries, quoted again:

{"changes": "Y32D/G55F/S107F", "apparent Kd": "no signal", "seen in": "0/3"}
{"changes": "G55A/Y60L/S107L", "apparent Kd": "14 µM", "seen in": "1/3"}
{"changes": "Y32F/G55N", "apparent Kd": "no signal", "seen in": "0/3"}
{"changes": "G55H/V64E/G99K", "apparent Kd": "no signal", "seen in": "0/3"}
{"changes": "L29E/G55A/S107L", "apparent Kd": "no signal", "seen in": "0/3"}

The measurements come from Engelhart et al. 2022 (doi:10.1038/s41597-022-01779-4) through the FLAb antibody collection.